The test system of one assay is ChoK. Conditions: xenotransplants of breast and colon cancer cells; cited from earlier work.
The subject of the next assay is PEMT mRNA. Description: PEMT mRNA levels by quantitative PCR after MN58b. Particulars: 20 μM; Hek293T, Jurkat, H1299 and SW780, all cases.
Another assay deals with ChoKβ mRNA. Description: ChoKβ mRNA levels by quantitative PCR after MN58b. Conditions: 20 μM, 24 and 48 hours; Hek293T, Jurkat, H1299 and SW780, all cases.
The next assay concerns the target ChoKα (Homo sapiens, UniProt P35790). Description: sensitivity of ChoK isoforms to the chemical inhibitor MN58b.
Another assay concerns the target ChoKβ (Homo sapiens, UniProt Q9Y259). The description is as above. Conditions: 20 μM MN58b.
Assay [1] has as its system Hek293T, Jurkat, H1299 and SW780 cells. Description: induction of apoptosis (immunodetection of PARP proteolysis / Caspase 3 degradation). Particulars: 20 μM, 24 h and 48 h.

The chains behind the UniProt entries cited, without tags or fusion partners. Where a name states a change or a piece, a line headed by the entry shows the natural chain unless it says otherwise.
UniProt P35790, whole entry, looked up: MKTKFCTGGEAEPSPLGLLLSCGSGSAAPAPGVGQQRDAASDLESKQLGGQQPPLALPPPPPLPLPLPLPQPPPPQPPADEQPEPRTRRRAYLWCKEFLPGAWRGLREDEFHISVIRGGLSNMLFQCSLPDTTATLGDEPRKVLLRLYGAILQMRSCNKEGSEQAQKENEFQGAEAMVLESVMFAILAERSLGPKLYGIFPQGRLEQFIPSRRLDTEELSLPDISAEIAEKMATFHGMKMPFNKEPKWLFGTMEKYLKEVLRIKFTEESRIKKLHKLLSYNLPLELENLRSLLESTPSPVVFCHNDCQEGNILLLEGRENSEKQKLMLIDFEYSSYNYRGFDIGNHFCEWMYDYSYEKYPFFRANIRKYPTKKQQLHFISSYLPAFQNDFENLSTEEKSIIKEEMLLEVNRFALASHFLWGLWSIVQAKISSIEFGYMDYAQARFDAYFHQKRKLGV
UniProt Q9Y259: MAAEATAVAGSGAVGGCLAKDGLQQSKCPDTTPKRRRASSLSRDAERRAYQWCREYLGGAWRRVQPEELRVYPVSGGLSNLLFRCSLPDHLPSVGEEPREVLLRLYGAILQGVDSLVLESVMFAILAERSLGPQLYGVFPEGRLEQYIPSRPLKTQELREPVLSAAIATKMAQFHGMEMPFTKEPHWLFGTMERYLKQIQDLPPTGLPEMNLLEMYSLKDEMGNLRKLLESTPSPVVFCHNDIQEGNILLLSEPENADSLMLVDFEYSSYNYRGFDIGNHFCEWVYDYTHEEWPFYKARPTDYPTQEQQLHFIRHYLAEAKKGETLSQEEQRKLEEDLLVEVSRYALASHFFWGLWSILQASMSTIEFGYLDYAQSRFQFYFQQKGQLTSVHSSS

Structures are written as SMILES.

As to `CN(C)c1cc[n+](Cc2ccc(CCCCc3ccc(C[n+]4ccc(N(C)C)cc4)cc3)cc2)cc1`, the “phosphomonoester levels affected after antitumor treatment (NMR)” value in the assay with ChoK was “only the levels of PCho, but not of other phosphomonoesters, were affected”. Also, the “levels of PEMT mRNA in response to MN58b” value with PEMT mRNA is listed as “increase”. In the assay on ChoKβ mRNA, the “levels of ChoKβ mRNA in response to MN58b” value is on record as “increase”. On ChoKα (20 μM MN58b), the “effect on ChoKα” value is reported as “inhibited”. Besides, at ChoKα (ChoKα compared with ChoKβ), the “sensitivity of ChoKα isoform versus ChoKβ isoform to the antiproliferative effect of MN58b” value was “markedly more sensitive”. Besides, the “effect on ChoKβ” value at ChoKβ is recorded as “not significantly affected”. For the same compound, in assay [1], the “apoptosis (PARP and Caspase 3 degradation)” value is recorded as “Induction of apoptosis”.

The record behind these values is patent publication US20110250179A1, “METHODS FOR TREATMENT AND DIAGNOSIS OF CANCER” (published 2011).
